According to article PMC7860060 (ACS Omega, 2021):

Key:
ζ-potential = format: physicochemical; conditions: 8 mg/mL in 1 mM PB pH 7.4, 25 °C, Malvern Nano-ZS, average of three measurements
[1] = Dynamic light scattering, hydrodynamic diameter; format: physicochemical; conditions: DLS, 0.25 mg/mL in 0.1 M PB pH 7.4, 25 °C, average of three measurements
[2] = cited from earlier work
[3] = tubular cell damage and peritubular fibrosis; cited from earlier work
[4] = SDS-PAGE of carbamylated proteins; format: physicochemical; conditions: 10% gel, denatured with SDS 60 °C 5 min, 200 V ∼30 min

Substance	ζ-potential (ζ-potential)	hydrodynamic diameter [1]	association with cardiovascular mortality and sudden cardiac death [2]	nephrotoxicity [3]	SDS-PAGE bands versus native protein [4]
HSA: Albumin from human serum (HSA, lyophilized, fatty-acid-free)	–7.46 ± 0.65 mV	9.4 nm	–	–	–
cHSA-1: in vitro carbamylated HSA, Hcit% 0.54	–	12.6 nm	–	–	–
cHSA-2: in vitro carbamylated HSA, Hcit% 2.7	–10.8 ± 0.44 mV	remained without further change	–	–	–
cHSA: carbamylated human serum albumin, degree of carbamylation not specified	–	–	strongly associated with cardiovascular mortality and sudden cardiac death	nephrotoxic	bands remained unchanged compared to their native protein
